One experiment concerns the target VEGFR2 (Homo sapiens, UniProt P35968). Briefly: cell-based.
Another experiment deals with SK-MEL-28 cells. The experiment is described as follows: HGF-stimulated melanoma proliferation cell assay. It is filed as cell-based. The following applies: Homo sapiens, complete media, 72 h, read-out: IC50, proliferation of SK-MEL-28, single-agent. Here is the method: Compound 1 in DMSO was dispensed into assay plates. SK-MEL-28 cells were added to 96-well plates (2,500 cells/well). Effects on cell proliferation were assessed by incubation of SK-MEL-28 cells in complete media, media containing 50 ng/mL HGF, or media mixed 1:1 with MRC-5 fibroblast-conditioned media. Plates were incubated for 72 h. Viable cells were identified by incubation with the vital dye resazurin and quantitated on a plate reader with excitation at 540 nm and emission at 600 nm.

Sequences of proteins named here, by UniProt entry; tags and fusion partners are left off. Residues count along the entry.
UniProt P35968, 20-1356: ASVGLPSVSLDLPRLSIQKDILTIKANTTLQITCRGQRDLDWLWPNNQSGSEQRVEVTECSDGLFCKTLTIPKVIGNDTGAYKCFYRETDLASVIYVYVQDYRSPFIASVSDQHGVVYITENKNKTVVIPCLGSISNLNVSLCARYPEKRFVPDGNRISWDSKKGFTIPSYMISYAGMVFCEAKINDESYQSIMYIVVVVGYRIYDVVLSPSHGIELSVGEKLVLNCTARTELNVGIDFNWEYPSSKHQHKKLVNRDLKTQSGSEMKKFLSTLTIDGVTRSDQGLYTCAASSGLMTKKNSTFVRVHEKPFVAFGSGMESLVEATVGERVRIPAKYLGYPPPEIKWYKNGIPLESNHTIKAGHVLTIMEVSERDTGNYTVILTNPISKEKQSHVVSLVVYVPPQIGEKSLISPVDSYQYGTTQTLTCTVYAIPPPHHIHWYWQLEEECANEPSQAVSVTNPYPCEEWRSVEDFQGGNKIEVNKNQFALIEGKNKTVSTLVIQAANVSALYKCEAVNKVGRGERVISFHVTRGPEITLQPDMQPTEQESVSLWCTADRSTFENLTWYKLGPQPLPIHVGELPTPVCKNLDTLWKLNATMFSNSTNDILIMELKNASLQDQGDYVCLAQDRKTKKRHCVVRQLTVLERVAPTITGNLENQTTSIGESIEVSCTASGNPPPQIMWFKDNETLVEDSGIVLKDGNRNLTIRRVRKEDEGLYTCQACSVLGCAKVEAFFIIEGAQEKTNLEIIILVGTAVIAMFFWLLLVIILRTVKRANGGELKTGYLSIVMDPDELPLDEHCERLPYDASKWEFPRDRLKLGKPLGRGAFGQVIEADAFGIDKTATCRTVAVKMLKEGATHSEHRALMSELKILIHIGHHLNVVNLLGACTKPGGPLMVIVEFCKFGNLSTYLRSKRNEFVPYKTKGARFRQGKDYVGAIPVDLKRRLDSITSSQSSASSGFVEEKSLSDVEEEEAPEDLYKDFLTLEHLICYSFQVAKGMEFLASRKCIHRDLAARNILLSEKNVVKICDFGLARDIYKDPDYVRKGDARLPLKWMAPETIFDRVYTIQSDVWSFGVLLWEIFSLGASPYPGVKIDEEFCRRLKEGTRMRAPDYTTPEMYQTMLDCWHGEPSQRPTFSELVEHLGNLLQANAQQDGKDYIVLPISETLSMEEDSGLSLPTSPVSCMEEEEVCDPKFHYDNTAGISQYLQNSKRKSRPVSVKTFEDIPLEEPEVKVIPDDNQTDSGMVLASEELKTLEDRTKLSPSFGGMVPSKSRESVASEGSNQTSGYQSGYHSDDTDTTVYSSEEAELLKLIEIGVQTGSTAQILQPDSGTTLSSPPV

This passage reports IC50 results from US20170079966A1, “INHIBITION OF TUMOR CELL INTERACTIONS WITH THE MICROENVIRONMENT RESULTING IN A REDUCTION IN TUMOR GROWTH AND DISEASE PROGRESSION” (Deciphera Pharmaceuticals, LLC, priority 2014, published 2017).

Bounds are passed on as bounds.

Turning to `O=C(Nc1cc(Oc2cc(F)c(NC(=O)C3(C(=O)Nc4ccc(F)cc4)CC3)cc2F)ccn1)C1CC1` [Compound 1, N-(4-(2-(cyclopropanecarboxamido)pyridin-4-yloxy)-2,5-difluorophenyl)-N′-(4-fluorophenyl)cyclopropane-1,1-dicarboxamide], the IC50 at VEGFR2 was 4.7 nM; in the experiment on SK-MEL-28 cells, above 10000 nM.
